Results published in patent publication US10222368B2 (priority 2012, dated 2019).

By UniProt entry, the sequences of proteins in these tests, tags left out. Residues count along the entry.
UniProt A0A8I5ZV49, 1-2647: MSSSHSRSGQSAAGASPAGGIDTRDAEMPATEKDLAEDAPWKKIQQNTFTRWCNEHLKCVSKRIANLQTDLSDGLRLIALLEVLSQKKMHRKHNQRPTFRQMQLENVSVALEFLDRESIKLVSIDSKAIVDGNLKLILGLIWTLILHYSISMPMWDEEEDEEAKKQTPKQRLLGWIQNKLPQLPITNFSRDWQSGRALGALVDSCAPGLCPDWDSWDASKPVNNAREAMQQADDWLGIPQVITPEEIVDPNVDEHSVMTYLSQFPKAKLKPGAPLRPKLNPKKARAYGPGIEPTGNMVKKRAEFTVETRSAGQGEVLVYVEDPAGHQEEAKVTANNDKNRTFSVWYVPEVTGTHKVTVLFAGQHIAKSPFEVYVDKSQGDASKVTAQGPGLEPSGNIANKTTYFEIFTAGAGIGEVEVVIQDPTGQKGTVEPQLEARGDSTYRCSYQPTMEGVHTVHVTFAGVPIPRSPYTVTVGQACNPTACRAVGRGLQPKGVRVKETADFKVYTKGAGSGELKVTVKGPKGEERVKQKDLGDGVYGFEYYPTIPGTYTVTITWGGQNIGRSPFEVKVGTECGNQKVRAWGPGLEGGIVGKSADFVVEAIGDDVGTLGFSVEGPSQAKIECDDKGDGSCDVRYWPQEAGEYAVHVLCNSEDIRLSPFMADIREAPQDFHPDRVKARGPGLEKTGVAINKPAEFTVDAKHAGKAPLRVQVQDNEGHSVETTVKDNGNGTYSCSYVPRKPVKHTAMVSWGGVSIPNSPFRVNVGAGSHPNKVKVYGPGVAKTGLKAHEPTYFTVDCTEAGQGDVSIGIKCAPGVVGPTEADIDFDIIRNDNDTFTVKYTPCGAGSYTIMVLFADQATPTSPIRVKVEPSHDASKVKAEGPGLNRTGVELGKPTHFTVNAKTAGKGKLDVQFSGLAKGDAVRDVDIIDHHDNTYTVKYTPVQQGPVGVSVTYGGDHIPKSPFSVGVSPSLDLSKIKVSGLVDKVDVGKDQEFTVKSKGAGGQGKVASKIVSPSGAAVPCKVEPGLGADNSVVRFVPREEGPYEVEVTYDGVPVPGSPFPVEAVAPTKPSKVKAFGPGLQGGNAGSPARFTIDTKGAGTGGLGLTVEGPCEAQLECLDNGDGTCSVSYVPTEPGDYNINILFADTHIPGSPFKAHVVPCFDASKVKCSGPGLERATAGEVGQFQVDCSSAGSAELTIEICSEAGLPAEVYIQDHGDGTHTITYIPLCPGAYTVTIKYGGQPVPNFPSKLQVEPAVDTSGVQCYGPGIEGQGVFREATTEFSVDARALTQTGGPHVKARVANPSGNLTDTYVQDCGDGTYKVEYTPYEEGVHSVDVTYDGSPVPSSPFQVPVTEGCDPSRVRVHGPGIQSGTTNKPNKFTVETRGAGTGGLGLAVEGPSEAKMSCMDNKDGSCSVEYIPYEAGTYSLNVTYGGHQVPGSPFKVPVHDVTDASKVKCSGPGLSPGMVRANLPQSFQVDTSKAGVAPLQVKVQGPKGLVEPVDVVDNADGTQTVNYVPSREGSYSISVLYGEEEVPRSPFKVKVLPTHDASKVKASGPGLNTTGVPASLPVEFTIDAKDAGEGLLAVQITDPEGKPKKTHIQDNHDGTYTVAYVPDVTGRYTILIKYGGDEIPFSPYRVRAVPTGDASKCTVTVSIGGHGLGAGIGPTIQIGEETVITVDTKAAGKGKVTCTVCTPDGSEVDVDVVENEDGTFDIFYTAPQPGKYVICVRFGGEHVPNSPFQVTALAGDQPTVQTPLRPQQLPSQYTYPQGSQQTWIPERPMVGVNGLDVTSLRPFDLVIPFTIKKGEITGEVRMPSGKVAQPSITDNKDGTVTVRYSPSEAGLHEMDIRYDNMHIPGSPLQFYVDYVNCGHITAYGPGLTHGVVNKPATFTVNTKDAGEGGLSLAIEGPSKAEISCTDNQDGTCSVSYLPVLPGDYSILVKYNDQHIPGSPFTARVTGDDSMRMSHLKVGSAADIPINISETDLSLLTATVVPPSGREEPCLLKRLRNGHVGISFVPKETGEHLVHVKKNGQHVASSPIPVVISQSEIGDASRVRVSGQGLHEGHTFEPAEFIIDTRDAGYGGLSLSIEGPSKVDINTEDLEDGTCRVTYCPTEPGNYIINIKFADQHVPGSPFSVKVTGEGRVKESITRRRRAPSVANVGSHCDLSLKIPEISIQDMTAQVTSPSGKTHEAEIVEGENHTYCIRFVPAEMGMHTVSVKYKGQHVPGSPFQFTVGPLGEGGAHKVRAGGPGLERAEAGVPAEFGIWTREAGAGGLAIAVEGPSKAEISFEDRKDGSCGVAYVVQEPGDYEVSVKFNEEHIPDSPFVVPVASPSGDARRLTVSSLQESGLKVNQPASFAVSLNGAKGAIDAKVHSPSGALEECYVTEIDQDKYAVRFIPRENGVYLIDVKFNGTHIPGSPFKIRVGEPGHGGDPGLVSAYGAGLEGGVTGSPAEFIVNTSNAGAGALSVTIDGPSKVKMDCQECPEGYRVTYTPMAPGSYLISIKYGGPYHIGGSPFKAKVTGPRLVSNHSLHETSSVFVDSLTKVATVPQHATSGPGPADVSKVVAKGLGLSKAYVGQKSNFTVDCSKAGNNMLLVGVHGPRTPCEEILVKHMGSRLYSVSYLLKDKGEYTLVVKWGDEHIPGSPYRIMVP
UniProt P35372, whole entry, species assumed: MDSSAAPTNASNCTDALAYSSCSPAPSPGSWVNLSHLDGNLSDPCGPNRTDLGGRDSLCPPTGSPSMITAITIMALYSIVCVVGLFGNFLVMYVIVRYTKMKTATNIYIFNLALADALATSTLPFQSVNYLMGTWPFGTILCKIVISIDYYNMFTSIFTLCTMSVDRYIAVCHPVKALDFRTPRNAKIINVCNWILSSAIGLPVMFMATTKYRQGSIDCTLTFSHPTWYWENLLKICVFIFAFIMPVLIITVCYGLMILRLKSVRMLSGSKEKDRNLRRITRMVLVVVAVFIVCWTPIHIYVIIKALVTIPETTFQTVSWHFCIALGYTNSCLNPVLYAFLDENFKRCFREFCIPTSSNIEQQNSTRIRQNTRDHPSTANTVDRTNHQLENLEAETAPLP
UniProt P41143, whole entry: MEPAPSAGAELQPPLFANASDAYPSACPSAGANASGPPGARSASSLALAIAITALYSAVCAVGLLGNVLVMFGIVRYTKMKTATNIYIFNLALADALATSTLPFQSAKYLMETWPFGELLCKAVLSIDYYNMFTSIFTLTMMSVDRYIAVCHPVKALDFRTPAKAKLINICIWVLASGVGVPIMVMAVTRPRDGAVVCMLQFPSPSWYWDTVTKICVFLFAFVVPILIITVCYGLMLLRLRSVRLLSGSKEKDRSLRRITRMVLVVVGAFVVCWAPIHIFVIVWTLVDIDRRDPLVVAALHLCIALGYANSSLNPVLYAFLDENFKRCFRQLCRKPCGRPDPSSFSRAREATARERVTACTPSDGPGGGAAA
UniProt P33535, whole entry: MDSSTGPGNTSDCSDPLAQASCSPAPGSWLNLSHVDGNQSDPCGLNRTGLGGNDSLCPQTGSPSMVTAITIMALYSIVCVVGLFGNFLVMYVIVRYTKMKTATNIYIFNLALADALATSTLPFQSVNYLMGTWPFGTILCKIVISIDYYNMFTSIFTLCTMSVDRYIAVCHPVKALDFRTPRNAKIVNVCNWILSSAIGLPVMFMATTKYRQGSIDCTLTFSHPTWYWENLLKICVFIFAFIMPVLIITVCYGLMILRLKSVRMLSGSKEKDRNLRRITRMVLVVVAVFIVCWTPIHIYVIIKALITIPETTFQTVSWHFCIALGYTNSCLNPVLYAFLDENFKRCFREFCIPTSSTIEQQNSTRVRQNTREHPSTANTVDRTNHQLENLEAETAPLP

Key:
[1] = target: T1, α7nAChR-FLNA association (Rattus norvegicus, UniProt A0A8I5ZV49); assay: Rat frontal cortical synaptosomes treated with Aβ42, anti-FLNA immunoprecipitation / Western blot; format: cell-based; conditions: 0.1 or 1 nM compound, simultaneously with or 10 min prior to Aβ42
T1 construct: from tissue; host or cells: rat frontal cortical synaptosomes
From the text: . The α7nAChR-FLNA complexes in the solubilized synaptosomes were immunoprecipitated with immobilized anti-FLNA and the α7nAChR and FLNA levels in the anti-FLNA immunoprecipitates determined by Western blotting (FIG. 14A) and quantified by densitometry for illustrative compounds (FIG. 14B). n=3. […] FIG. 4C illustrates similar results to those of FIGS. 14A and 14B from a separate, but similar study. […] The letter designation “M” that accompanies many of the “C-series” compounds is omitted from FIG. 14, the remaining figures and most discussions of the figures and compounds hereinafter for ease in expression. Structural formulas of the compounds used in this and the other figures are provided hereinafter.
The complexes in the solubilized synaptosomes, and α7nAChR, TLR4 and FLNA levels in the anti-FLNA immunoprecipitates were determined by Western blotting (FIG. 15A) in which numerals outside of and to the left of the blots are as discussed before. Amounts present in the blots were quantified by densitometry (FIG. 15B). […] Structural formulas of the compounds used in this and the other figures are provided hereinafter.

[2] = target: MU opioid receptor (Homo sapiens, UniProt P35372); parameters: key: “−” = antagonist; “+” = agonist; P = partial agonist; “NR” = not reported in the published table; conditions: cited from earlier work
[3] = target: DELTA opioid receptor (Homo sapiens, UniProt P41143); conditions: cited from earlier work
[4] = target: T2, mu opiate receptor (MOR) (Rattus norvegicus, UniProt P33535); assay: MOR agonist activity using [35S]GTPγS binding assay in striatal membranes; format: biochemical
T2 construct: from tissue; host or cells: striatal tissue (membrane preparation)

| Compound | Effect on Aβ42-induced α7nAChR-FLNA association (in words) [1] | Opioid receptor activity and relative potency, MU [2] | also measured |
| --- | --- | --- | --- |
| COc1c2c(cc3c1C(CC(=O)Cc1ccccc1F)[N+](C)(C)CC3)OCO2.[I-] (stereo not drawn) [Compound B0055] | reduce α7nAChR-FLNA association |  |  |
| O=C1CN(Cc2ccccc2)C2(CCN(C3CCCCC3)CC2)N1 [Compound C0137M] | reduce α7nAChR-FLNA association |  |  |
| O=C1CN(Cc2ccccc2)C2(CCN(S(=O)(=O)c3cc(Cl)cc(Cl)c3O)CC2)N1 [Compound C0138M] | reduce α7nAChR-FLNA association |  |  |
| Oc1ccc2c(c1)[C@@]13CCCC[C@@]1(O)[C@@H](C2)N(CC1CCC1)CC3 [Ethyl Ketocyclazcine] |  | P | Opioid receptor activity and relative potency, DELTA [3]: + |
| O=S(=O)(c1ccc(F)cc1)N1CCOC12CCN(CC1CC1)CC2 [F-C0134] |  |  | MOR agonist activity, [35S]GTPγS binding, FLNA-binding compound as agonist at 0.1 μM ([4]; 0.1 μM compound, Series C-2): 290.6%; MOR agonist activity, [35S]GTPγS binding, 1 μM + BFNA ([4]; 1 μM compound + 1 μM β-FNA (MOR antagonist)): 66.6%; MOR agonist activity, [35S]GTPγS binding, FLNA-binding compound as agonist at 1 μM ([4]; 1 μM compound, Series C-2): 378.9% |
| Cyprodime |  | − − |  |
